Compounds with a hit are over-represented: about 2.3% of the library has one in this group of screens.
Glioma ERSR ind – ER stress response induction in glioma. Potency, µM, inactives show top-dose activation, usual class: activators. 420,000 tested, 0.02% active. AID 602332. U87-MG GRP78 promoter luciferase reporter, 16 h; note: potency is the fitted concentration of half-maximal effect; series mostly up to about 76 µM; % of control where 0% means no effect; nearly all actives have a fitted effect of over 35% in size
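Stably transfected U87-MG human glioma cells carrying a GRP78-based luminescent sensor were seeded at 1000 cells/well, pin-dosed with compounds and incubated 16 h. Luciferase reagent was then added, and end-point luminescence was read after 10 min at room temperature.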
Mito fusion yeast – blocks mitochondrial division or promotes mitochondrial fusion. S. cerevisiae fusion-defective mutant growth rescue, CellTiterGlo 48 h. Potency, µM (series often up to 46.1 µM), for the others: at the top dose growth rescue (activation), hits mostly activators. 320,000 tested, 0.23% active; note: potency is the fitted concentration of half-maximal effect; % of control where 0% means no effect; nearly all actives have a fitted effect of over 45% in size
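Temperature-sensitive fusion-defective S. cerevisiae (e.g. fzo1-1, mgm1-5) were grown with compound in YPEG medium (3% ethanol, 3% glycerol) for 48 hours at 37C. Growth rescue was measured as viability by CellTiterGlo luminescence after 10 minutes at ambient.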
A549 tox-1 – counter-screen for Nrf2 inhibitors: cytotoxicity in A549 cells. A549 ARE-Fluc cells, CellTiter-Fluor viability, 18-24 h. Potency, µM (doses to about 46 µM), for inactives: top-dose activity change, negative = cytotoxicity, most hits filed as inhibitors. 390,000 tested, 0.16% active; note: potency is the fitted concentration of half-maximal effect; % is set by controls: 0 for no effect and ±100 for the full control effect
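A549 ARE-Fluc cells in 5% FBS OPTI-MEM, 5000 cells/well, rested 2 h then exposed to compounds in concentration-response for 18-24 h at 37 °C. Viability by CellTiter-Fluor fluorescence (Ex 405/Em 525) after 30 min; luciferase luminescence (BugLite, 15 min, RT) read afterwards.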
Nrf2 ARE act – activators of Nrf2 (ARE) signaling; AREc32 ARE-luciferase reporter (MCF7-derived line), luminescence, 24 h; 410,000 tested, 0.31% active; Potency, µM (highest dose often 46.1 µM), without a hit: at the highest dose activation, hits mostly activators; note: potency is the fitted concentration of half-maximal effect; % of control where 0% means no effect; nearly all actives have a fitted effect of over 65% in size
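Cells of the AREc32 ARE-luciferase line are plated in OPTI-MEM containing 5% FBS and left overnight at 37 deg C. Compounds are pinned in, incubation continues 24 hr, and firefly luciferase signal is then measured.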
miR-21 FLuc – raises the signal of a miR-21 reporter | HeLa miR-21 FLuc reporter, luciferase, 48 h | Potency, µM (highest dose often 38.3 µM), without a hit: at the top dose reporter change, positive = more light | 340,000 tested, under 10 active; active = well fitted rising curve with a large enough effect; inconclusive = small, poorly fitted or top-dose-only effect; inactive = no such curve, though single readings can be large or run the other way;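 note: % of control where 0% means no effect; miR-21 action dims this reporter so a rising signal means less miR-21 action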
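Using DMEM plus 10% FBS, HeLa miR-21-FLuc cells are incubated with test compounds (final up to about 40uM) for 48 hours; firefly luciferase signal is then imaged following reagent-mediated lysis.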
Nrf2 inh – inhibitors of Nrf2 signaling | 360,000 tested, 2.1% active | A549 ARE-Fluc reporter, luciferase luminescence, 18-24 h | Potency, µM (series often up to 46 µM), inactives show at the highest dose activity change, negative = inhibition, usual class: inhibitors; note: potency is the fitted concentration of half-maximal effect; % is set by controls: 0 for no effect and ±100 for the full control effect; nearly all actives have a fitted effect of over 60% in size
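A549 ARE_Fluc cells (5000/well, 5% FBS OPTI-MEM) pre-incubated 2 h, then treated with compounds 18-24 h at 37C/5% CO2 in concentration-response. CellTiter-Fluor viability read first; BugLite luciferase luminescence after 15 min at room temperature gives Nrf2 activity.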
FLuc enzyme inh – firefly luciferase inhibition, Nrf2 hit validation; shares compounds with Nrf2 inh; Potency, µM (top dose mostly 57.5 µM), without a hit: top-dose activity change, negative = inhibition, most hits filed as inhibitors; purified firefly luciferase, luminescence inhibition; AID 720522; 1,400 tested, 4% active; note: potency is the fitted concentration of half-maximal effect; % is set by controls: 0 for no effect and ±100 for the full control effect; nearly all actives have a fitted effect of over 65% in size
A549 tox-2 – counter-screen for Nrf2 inhibitors: cytotoxicity in A549 ARE cells | shares compounds with Nrf2 inh | 1,400 tested, 2% active | A549 ARE-Fluc cells, cytotoxicity counterscreen | AID 720523 | Potency, µM (highest dose often 46.1 µM), for the others: at the top dose activity change, negative = cytotoxicity, most hits filed as inhibitors;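 note: potency is the fitted concentration of half-maximal effect; cells exposed to compounds for 18 to 24 hours; % is set by controls: 0 for no effect and ±100 for the full control effect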
ARE-Fluc inh – confirmation of Nrf2 inhibitors in A549 ARE reporter cells; 1,400 tested, 74% active; Potency, µM (series often up to 46.1 µM), without a hit: at the top dose activity change, negative = inhibition, hits mostly inhibitors; shares compounds with Nrf2 inh; A549 ARE-firefly luciferase reporter, luminescence; note: potency is the fitted concentration of half-maximal effect; % is set by controls: 0 for no effect and ±100 for the full control effect; nearly all actives have a fitted effect of over 65% in size
Starred values were filed as active, the others as inactive; [ ] = another dose, or the depositor's remark. Calls come from the whole dose curve; as a rule, active = well fitted curve in the direction sought with a large enough effect; inconclusive = small, poorly fitted or top-dose-only effect, or another doubt; inactive = no such curve, though single readings can be large; an effect the other way counts as inactive or inconclusive.

For CC(C)CC(=NNC(=O)c1ccncc1)c1cc(Cl)ccc1O the results were Glioma ERSR ind -4%, A549 tox-1 inconclusive, Nrf2 ARE act 0%, Nrf2 inh 6.5µM*, FLuc enzyme inh 1%, A549 tox-2 -2% and ARE-Fluc inh 6.5µM*.
`O=C1CCCC2=C1C1(CCSCC1)N=C(Nc1nc3ccccc3o1)N2` gave A549 tox-1 8% and Nrf2 inh -2%.
Screening Cc1ccc(Nc2c(-c3ccccn3)nc3ccc(Br)cn23)cc1 returned Glioma ERSR ind -1%, A549 tox-1 1%, Nrf2 ARE act 0%, miR-21 FLuc -1% and Nrf2 inh 4%[9.27 µM].
Screening Cc1ccc(Nc2c(-c3ccccn3)nc3cccc(C)n23)cc1 returned Glioma ERSR ind -10%, Mito fusion yeast -5%, A549 tox-1 inconclusive, Nrf2 ARE act 3%, miR-21 FLuc inconclusive, Nrf2 inh 6.5µM*, FLuc enzyme inh -8%, A549 tox-2 inconclusive and ARE-Fluc inh 5.2µM*.
CC(C)(C)OC(=O)NCCCC[C@H](NC(=O)c1nc[nH]c1C(=O)NC(c1ccccc1)c1ccccc1)C(=O)OC(C)(C)C was read as Glioma ERSR ind -1%, Mito fusion yeast -1%, A549 tox-1 inconclusive, Nrf2 ARE act 4%, miR-21 FLuc 22%, Nrf2 inh 3.7µM*, FLuc enzyme inh 0%, A549 tox-2 inconclusive and ARE-Fluc inh 21µM*.
CC(C)(C)OC(=O)NCCCC[C@H](NC(=O)c1nc[nH]c1C(=O)N[C@@H](CCCCNC(=O)OC(C)(C)C)C(=O)OC(C)(C)C)C(=O)OC(C)(C)C was read as Glioma ERSR ind -1%, Mito fusion yeast -15%, A549 tox-1 -14%, Nrf2 ARE act 0%, miR-21 FLuc 22% and Nrf2 inh inconclusive.
Cc1cc(C)c(C(=O)C(C)OC(=O)C2=COCCO2)cc1C (configuration not stated) was read as Glioma ERSR ind -2%, Mito fusion yeast -1%, A549 tox-1 -1%, Nrf2 ARE act 0%, miR-21 FLuc -4% and Nrf2 inh 2%.
`COc1ccc(OCC(O)Cn2c(NCCO)nc3c2c(=O)n(C)c(=O)n3C)cc1` (configuration not stated) gave Glioma ERSR ind -3%, A549 tox-1 -6%, Nrf2 ARE act 0%, miR-21 FLuc 20%, Nrf2 inh 7.3µM*, FLuc enzyme inh 1%, A549 tox-2 -3% and ARE-Fluc inh 12µM*.
For CCCNc1nc2c(c(=O)n(C)c(=O)n2C)n1CC(O)COc1ccccc1 (configuration not stated) the results were Glioma ERSR ind -1%, A549 tox-1 2%, Nrf2 ARE act -1%, miR-21 FLuc -1% and Nrf2 inh 8%.
Screening COc1cc2ncnc(NCc3ccccc3)c2cc1OC returned Glioma ERSR ind -4%, Mito fusion yeast 7%, A549 tox-1 -9%, Nrf2 ARE act 1%, miR-21 FLuc 1% and Nrf2 inh inconclusive.
c1ccc(CNc2ncnc3ccccc23)cc1 was read as Glioma ERSR ind -2%, Mito fusion yeast -2%, A549 tox-1 -3%, Nrf2 ARE act -1%, miR-21 FLuc 30%, Nrf2 inh 4.6µM*, FLuc enzyme inh 0%, A549 tox-2 -12% and ARE-Fluc inh 6.5µM*.
Screening COc1ccccc1/C=C/C(=O)N1CCc2cc(OC)c(OC)cc2C1C (configuration not stated) returned Glioma ERSR ind -4%, Mito fusion yeast 0%, A549 tox-1 -11%, Nrf2 ARE act 0%[9.22 µM], miR-21 FLuc 2%, Nrf2 inh inconclusive, FLuc enzyme inh 2%, A549 tox-2 -6% and ARE-Fluc inh 7.3µM*.
Cc1ccc(S(=O)(=O)N2CCOCC2)cc1C(=O)N1CCCCCC1 was read as Glioma ERSR ind -4%, Mito fusion yeast 1%, A549 tox-1 2%, Nrf2 ARE act -1%, miR-21 FLuc 1% and Nrf2 inh 1%.
C(=C\c1cc(/C=C/c2ccccc2)ncn1)/c1ccccc1 was read as Glioma ERSR ind 3%, Mito fusion yeast -4%, A549 tox-1 6%, Nrf2 ARE act 4%, miR-21 FLuc -39% and Nrf2 inh inconclusive.
`CN(C)c1ccc(/C=C/c2ccccn2)cc1` gave Glioma ERSR ind -2%.

The final 3 records of the section above lead into the next:
Cc1ccc(S(=O)(=O)N2CCOCC2)cc1C(=O)N1CCCCCC1 was read as Glioma ERSR ind -4%, Mito fusion yeast 1%, A549 tox-1 2%, Nrf2 ARE act -1%, miR-21 FLuc 1% and Nrf2 inh 1%.
C(=C\c1cc(/C=C/c2ccccc2)ncn1)/c1ccccc1 was read as Glioma ERSR ind 3%, Mito fusion yeast -4%, A549 tox-1 6%, Nrf2 ARE act 4%, miR-21 FLuc -39% and Nrf2 inh inconclusive.
`CN(C)c1ccc(/C=C/c2ccccn2)cc1` gave Glioma ERSR ind -2%.
For C(=C\c1ccccn1)/c1ccccc1 the results were Glioma ERSR ind -3%, FLuc enzyme inh 0%, A549 tox-2 -33% and ARE-Fluc inh 10µM*.
For Clc1ccc(/C=C/c2ccnc3ccccc23)cc1 the results were Glioma ERSR ind 11%.
Cc1c(/C=C/c2ccnc3ccccc23)ccc(N(C)C)c1C was read as Glioma ERSR ind 0%, FLuc enzyme inh -21%, A549 tox-2 -16% and ARE-Fluc inh inconclusive.
For CCN(CC)c1ccc(/C=C/c2ccccn2)cc1 the results were Glioma ERSR ind -7%, FLuc enzyme inh -13%, A549 tox-2 9.2µM* and ARE-Fluc inh 1.6µM*.
Screening Clc1ccc(/C=C/c2ccnc3ccccc23)c(Cl)c1 returned Glioma ERSR ind -1%, FLuc enzyme inh inconclusive, A549 tox-2 -6% and ARE-Fluc inh inconclusive.
Cc1onc(-c2ccccc2)c1C(=O)N/N=C/c1cc2c(cc1Br)OCO2 was read as Glioma ERSR ind 0%, A549 tox-1 3%, Nrf2 ARE act 5%, miR-21 FLuc -2% and Nrf2 inh inconclusive.
`CCN(CC)c1ccc(/C=C/c2ccnc3ccccc23)cc1` gave Glioma ERSR ind 6%, FLuc enzyme inh inconclusive, A549 tox-2 -12% and ARE-Fluc inh 15µM*.
Screening COc1cc(OC)c(C=Cc2ccncn2)c(OC)c1 returned Glioma ERSR ind -4% and Nrf2 ARE act 2%.
Screening Nc1ccc(/C=C/c2nccc3ccccc23)cc1 returned Glioma ERSR ind -6%, FLuc enzyme inh 2.7µM*, A549 tox-2 -7% and ARE-Fluc inh inconclusive.
